In assay [1] the test system is Ba/F3-TEL-PDGFβ(WT). The assay can be described thus: Proliferation inhibitory activity on Ba/F3 cell (CellTiter-Glo, 72 hours), PDGFR-β. Conditions: read-out: Ba/F3 (nM) Tel-PDGFRβ (GI50 class). As for the experimental part:
(§1) Ba/F3-TEL-PDGFRα(WT), Ba/F3-TEL-PDGFβ(WT), Ba/F3-c-KIT(D816V) (Kyinno, #KC-0138), c-KIT V560G/D816V, c-KIT D814Y were seeded at 3×10^3/100 μl/well in a clear bottom white 96-well plate. A culture solution containing compounds of 12 concentrations (0.00001-2 mM) serially diluted in 3 folds and the DMSO control group was added at 0.5 μl/well each to a final concentration of 0.00005-10 μM, and then incubated in a CO2 incubator at 37° C. for 72 hours. After 72 hours, the plate treated with the compound was taken out, CellTiter-Glo® Assay (Promega) solution was treated with 100 μl/well, followed by mixing well. After mixing well for about 10 minutes at room temperature, […] was measured using a microplate reader. The data were presented as percentages in proportion to treated cells based on the vehicle, GI50 (nM) values were calculated using GraphPad Prism 8.3.0 (GraphPad software Inc., San Diego).
(§2) The inhibitory activities of Ba/F3 expressing PDGFR-α, PDGFR-β, c-KIT(D816V), c-KIT V560G/D816V, and c-KIT D814Y measured as described above were measured and shown in Table 7 below (A: GI50≤200 nM; B: 200 nM<GI50≤500 nM; C: GI50>500 nM).

Chains of the proteins cited; added tags and fusions are not shown. Residues count along the entry.
UniProt P09619, 33-1106 limits assumed: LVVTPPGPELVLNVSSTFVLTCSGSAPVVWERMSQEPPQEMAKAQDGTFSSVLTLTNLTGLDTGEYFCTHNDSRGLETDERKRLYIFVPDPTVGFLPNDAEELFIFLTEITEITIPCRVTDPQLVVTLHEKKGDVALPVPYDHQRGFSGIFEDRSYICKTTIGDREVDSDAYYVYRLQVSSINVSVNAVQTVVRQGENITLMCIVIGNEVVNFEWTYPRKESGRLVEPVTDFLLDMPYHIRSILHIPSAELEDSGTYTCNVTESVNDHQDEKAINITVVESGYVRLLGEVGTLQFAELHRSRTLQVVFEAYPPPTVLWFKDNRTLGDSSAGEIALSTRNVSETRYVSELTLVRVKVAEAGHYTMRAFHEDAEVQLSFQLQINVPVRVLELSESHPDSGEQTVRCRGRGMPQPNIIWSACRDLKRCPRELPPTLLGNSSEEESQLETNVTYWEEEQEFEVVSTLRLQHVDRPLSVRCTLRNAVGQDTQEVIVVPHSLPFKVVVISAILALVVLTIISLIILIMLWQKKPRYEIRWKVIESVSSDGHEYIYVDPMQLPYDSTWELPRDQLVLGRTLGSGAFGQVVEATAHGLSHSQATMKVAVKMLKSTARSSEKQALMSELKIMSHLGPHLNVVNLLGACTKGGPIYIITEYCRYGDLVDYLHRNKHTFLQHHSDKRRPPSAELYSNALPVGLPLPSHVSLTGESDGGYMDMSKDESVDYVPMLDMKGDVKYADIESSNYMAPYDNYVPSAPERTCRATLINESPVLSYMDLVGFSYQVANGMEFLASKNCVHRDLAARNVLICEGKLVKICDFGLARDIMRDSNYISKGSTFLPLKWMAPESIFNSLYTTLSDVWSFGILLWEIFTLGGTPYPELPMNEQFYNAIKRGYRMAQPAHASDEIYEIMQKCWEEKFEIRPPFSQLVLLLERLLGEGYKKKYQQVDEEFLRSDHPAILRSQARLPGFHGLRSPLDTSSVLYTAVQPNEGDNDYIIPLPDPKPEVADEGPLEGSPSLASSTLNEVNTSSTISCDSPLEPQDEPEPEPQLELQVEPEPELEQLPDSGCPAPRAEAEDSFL

For assay [2], the system named is c-KIT V560G/D816V. The assay is described as follows: Proliferation inhibitory activity on Ba/F3 cell (CellTiter-Glo, 72 hours), c-KIT V560G/D816V. Conditions: read-out: Cell (nM) c-KIT V560G/D816V (GI50 class), c-KIT V560G/D816V cells. On the procedure:
as §1, §2
In general terms: Cellular ATP, detected with luciferase, serves as a proxy for viable cell number.

In assay [3] the target is human PDGFR-β(wt) (Homo sapiens, UniProt P09619). The assay is described as follows: Enzyme inhibitory activity, ADP-Glo kinase assay, PDGFR-β(wt). Conditions: read-out: PDGFR-β (IC50 class). On the procedure:
In order to evaluate the inhibitory activity of the compounds synthesized according to the above examples on PDGFR-α(wt), PDGFR-β(wt), c-KIT(wt), and c-KIT(D816V) kinases, the following method was performed. The compounds of examples were reacted with purified human PDGFR-α(wt) (Signalchem #P12-18G) enzyme, human PDGFR-β(wt) (Signalchem #P13-11G) enzyme, human c-KIT(wt) (Signalchem #K06-11BG) enzyme, human c-KIT(D816V) (Signalchem #C06-12LG) enzyme, and the enzyme inhibitory abilities were evaluated by the following method.
The reaction buffer was used as a composition of 40 mM Tris-HCl pH7.4, 20 mM MgCl2, 0.5 mg/ml BSA, 50 μM DTT, and the reactions of all the tests were carried out on the reaction buffer. The compound was diluted in 12 steps using a serial dilution method from a 10 mM DMSO stock, and the enzyme activity was measured at a final compound concentration of 10˜0.00005645 μM. During the test, the enzyme activity was confirmed using in vitro ADP-Glo™ kinase assay (Promega) after reacting with the proper concentration of human PDGFR-α(wt) enzyme, human PDGFR-β(wt), human c-KIT(wt) enzyme, and human c-KIT(D816V) enzyme with purified ATP and enzyme substrate at 25° C. for 1˜2 hours. […]

Some results are limits rather than exact numbers.

In general, IC50 refers to the concentration needed to halve the response being measured. As for `COc1cc2c(-c3ccc(NC(=O)Cc4ccc(C(F)(F)F)cc4)cc3)ncnc2cc1OCC1CCN(C(C)C)CC1`, the GI50 in assay [1] and in assay [2] was below 200 nM in each case. The IC50 in assay [3] is below 50 nM.
